Assay results taken from US7749984B2, “Computer-based model for identification and characterization of non-competitive inhibitors of nicotinic acetylcholine receptors and related ligand-gated ion channel receptors” (priority 2003, dated 2010).

The chains behind the UniProt entries cited, without tags or fusion partners. Residues count along the entry.
UniProt P04757, 26-499 limits assumed: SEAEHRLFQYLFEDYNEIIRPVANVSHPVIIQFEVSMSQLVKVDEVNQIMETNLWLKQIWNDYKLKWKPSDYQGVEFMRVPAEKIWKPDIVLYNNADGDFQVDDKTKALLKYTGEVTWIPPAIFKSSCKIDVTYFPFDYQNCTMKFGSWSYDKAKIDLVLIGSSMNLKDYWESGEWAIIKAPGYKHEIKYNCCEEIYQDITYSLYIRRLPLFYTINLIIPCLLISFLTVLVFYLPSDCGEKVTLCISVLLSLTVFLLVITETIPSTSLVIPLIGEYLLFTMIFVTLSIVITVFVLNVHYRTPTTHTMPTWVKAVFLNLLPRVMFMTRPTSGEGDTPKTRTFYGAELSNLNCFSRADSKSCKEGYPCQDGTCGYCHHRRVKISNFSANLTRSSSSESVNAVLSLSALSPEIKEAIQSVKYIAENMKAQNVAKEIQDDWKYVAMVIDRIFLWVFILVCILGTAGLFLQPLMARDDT
UniProt P12392, 21-495 limits assumed: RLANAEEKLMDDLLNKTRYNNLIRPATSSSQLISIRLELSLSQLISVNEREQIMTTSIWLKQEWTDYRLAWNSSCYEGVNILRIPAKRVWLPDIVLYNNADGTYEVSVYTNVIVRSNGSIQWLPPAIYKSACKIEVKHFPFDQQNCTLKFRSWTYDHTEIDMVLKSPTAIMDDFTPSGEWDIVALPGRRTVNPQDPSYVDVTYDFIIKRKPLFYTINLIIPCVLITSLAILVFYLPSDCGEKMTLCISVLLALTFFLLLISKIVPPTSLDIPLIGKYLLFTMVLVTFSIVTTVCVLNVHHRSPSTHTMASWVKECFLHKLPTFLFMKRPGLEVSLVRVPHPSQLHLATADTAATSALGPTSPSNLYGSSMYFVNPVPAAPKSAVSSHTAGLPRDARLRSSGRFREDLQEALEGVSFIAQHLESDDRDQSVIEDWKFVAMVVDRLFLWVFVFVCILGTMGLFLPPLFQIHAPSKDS

Target: α3β4 nAChR (Rattus norvegicus, UniProt P04757+P12392)
Details: for k′(NLC) retention capacity factor: 10 μM, 20 μl injected, ammonium acetate 10 mM pH 7.4/methanol 85:15; for koff dissociation constant rate / log K chromatographic equilibrium constant: NLC

| SMILES | k′(NLC) retention capacity factor | koff dissociation constant rate [s⁻¹] | log K chromatographic equilibrium constant [M^−1] |
| --- | --- | --- | --- |
| COc1cc(C(C#N)(CCCNCCc2ccc(OC)c(OC)c2)C(C)C)ccc1O (stereo not drawn) | 99.29 | 0.53 | 7.48 |
| CNCCCC(C#N)(c1ccc(O)c(OC)c1)C(C)C (stereo not drawn) | 19.42 | 2.52 | 6.63 |
